# Binding of CDR-mutated scFvs to a peptide of the spike HR2 region

From the AlphaSeq antibody data of Engelhart et al. 2022 (doi:10.1038/s41597-022-01779-4), copy in the FLAb collection.

Binding partner: SARS-CoV-2 spike HR2 peptide, sequence PDVDLGDISGINAS.

The variants keep the heavy chain, the linker and the frameworks of Ab-95 (scFv order VH, the linker GGGGSGGGGSGGGGS, VL).
VH: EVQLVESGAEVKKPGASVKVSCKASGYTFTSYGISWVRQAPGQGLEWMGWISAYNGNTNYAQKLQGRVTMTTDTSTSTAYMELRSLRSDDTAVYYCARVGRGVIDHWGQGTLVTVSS
VL: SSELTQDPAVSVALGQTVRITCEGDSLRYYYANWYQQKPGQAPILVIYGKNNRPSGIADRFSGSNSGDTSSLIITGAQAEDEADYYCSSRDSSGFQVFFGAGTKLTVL

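The starting antibody came from a phage panning campaign against this peptide. The library (AAYL52) carries one to three amino acid substitutions per variant, with no insertions or deletions. In AlphaSeq, yeast of one mating type display the scFv and yeast of the other type display the target. After mating in shaken culture at 30 °C for 16 h, diploids were selected and their barcode pairs sequenced. Read counts were normalised to the haploid input and turned into Kd by a linear fit to BCL2-family pairs of known affinity, for each replicate. The assay was run in three technical replicates.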

Each variant is given by its three light chain CDRs, as the data file delimits them; those of the parent are EGDSLRYYYAN, GKNNRPS, SSRDSSGFQVF. Scale: log10 of Kd in nM, estimated from mating counts; low values are strong binders. The mean shown is taken over the replicates in which the pair was detected. An entry "nd" has no value in the source: the pair was not observed among the diploids in any replicate. This suggests poor binding but is not conclusive. Background: pairings of library AAYL52 with three empty control strains gave a value in 28% of cases (median 3.91, 5th percentile 2.90). Values in that range, when seen in few replicates, are hard to tell from nonspecific mating. Parent in this assay: reference entry 2.31, copy in this library 2.25.

log10 Kd (nM), mean	detected	CDR-L1	CDR-L2	CDR-L3
nd	0 of 3	EGDSLRYYYAN	GKINRPS	SSRDFSGFQVF
4.91	1 of 3	EGDSLRMYYAN	GKNNRPS	SVRDSSGVQVF
2.38	1 of 3	MGDSLRYYYAN	GKNNRPS	SSRDDSGFCVF
3.87	3 of 3	EGDSLYYYYAN	YKNNRPS	SSRDSSGFPVF
1.56	3 of 3	EGDSLRYGYAN	GKNNRPS	SSPDSSGFQVF
3.14	2 of 3	EGDSLRYYYAN	GKNKRPS	SSRDSSGFSVG
2.84	3 of 3	EGDSLRYYIAN	GENNRPS	SSRDSSGFFVF
4.07	3 of 3	EGDSLRYYYAN	GKNNRPS	SIRDSSGFQVT
3.16	3 of 3	EDDSLRLYYAN	GDNNRPS	SSRDSSGFQVF
nd	0 of 3	EGDSVRYYYAN	GKNNRPR	SSRDHSGFQVF
4.75	1 of 3	EGDSLRYYYAN	GKNNQPS	SSEDSSGDQVF
2.60	3 of 3	MGDSLRYYYAN	GKNNRGS	SSRDLSGFQVF
3.97	2 of 3	EGDSHRYWYAN	GKNNRSS	SSRDSSGFQVF
3.61	3 of 3	EGDSVRYYYAN	GKNNRPQ	SSRDSSNFQVF
nd	0 of 3	EGDSLRYYYAN	GLMNRPS	SSWDSSGFQVF
3.58	1 of 3	EGDSLRYYYAK	GKNNRPS	STPDSSGFQVF
3.70	2 of 3	NGDSLRYYYAN	GYNNRWS	SSRDSSGFQVF
3.09	3 of 3	EGDSLRYYYAN	GKNNRPS	SIRDSSGVEVF
3.53	2 of 3	EADSLRYYYAN	GKNNRPS	SRRDSSGFQVV
nd	0 of 3	EGDSLRYYYAL	GTNNRPS	SSRDSSGFWVF
nd	0 of 3	EGDSLRYYYAN	GWNNRPS	SSRMSIGFQVF
nd	0 of 3	EGDSGRYYYAN	CKNNRPS	SSRDSSGFQVN
3.72	1 of 3	PGDSCRYYYEN	GKNNRPS	SSRDSSGFQVF
4.93	2 of 3	AGDSLRYYYKN	GKKNRPS	SSRDSSGFQVF
2.48	3 of 3	EGDSLRYYYAN	GKNNRPS	SSRDSKEFQVF
2.24	3 of 3	EGDSLRAYYAN	GKNGRPS	SSRDSSGFEVF
1.73	3 of 3	EGDSLRYYYAN	NKNDRPS	MSRDSSGFQVF
nd	0 of 3	EGKSLRYYYAN	GKTNRPS	SSFDSSGFQVF
nd	0 of 3	EGDSLRYYYAN	QKGNRPS	SSRDSSGFQVF
4.35	1 of 3	EGDSTLYYYAN	DKNNRPS	SSRDSSGFQVF
3.62	3 of 3	EGDSLRYYYAN	GKNNRPS	WSRDSSGFSVV
nd	0 of 3	EGDSLRYYYAN	GKNNGPE	SSRISSGFQVF
4.60	1 of 3	EGDSLRYYPAN	GKNNPPS	SSRDSSGFQYF
4.34	2 of 3	EGGSLRYYYAN	GKNNRMS	RSRDSSGFQVF
4.93	3 of 3	EGDSLRYYYAN	LKNNFPS	SIRDSSGFQVF
4.54	1 of 3	EGDSLRYYYAN	GKNNRPG	SHRDFSGFQVF
1.84	3 of 3	EGYSLRYYHAN	GKNNRPS	ESRDSSGFQVF
3.29	3 of 3	EGDSLRYYYAN	GKNNRPS	LKEDSSGFQVF
3.14	2 of 3	EGDSLRVYAAN	GKNNRTS	SSRDSSGFQVF
1.51	3 of 3	EGDSLRYYEAN	GKNNRMS	SSRRSSGFQVF
2.48	3 of 3	EGDSLRYLYAN	GKNNRPS	SGRDSSGFNVF
2.27	3 of 3	SGDSLRYYKAN	GKNNRNS	SSRDSSGFQVF
nd	0 of 3	EGDSLRYYYAN	GLNNFPS	SLRDSSGFQVF
4.56	2 of 3	EGDSLRYWYAN	GKNNRPS	TSRPSSGFQVF
3.03	3 of 3	EGDSLVYYYAV	GKNNRPK	SSRDSSGFQVF

A selection of 4 entries from above:

{"CDR-L1": "EGDSLRYYYAN", "CDR-L2": "GLMNRPS", "CDR-L3": "SSWDSSGFQVF", "log10 Kd (nM), mean": "nd", "detected": "0 of 3"}
{"CDR-L1": "EGDSHRYWYAN", "CDR-L2": "GKNNRSS", "CDR-L3": "SSRDSSGFQVF", "log10 Kd (nM), mean": "3.97", "detected": "2 of 3"}
{"CDR-L1": "EGDSLRYYYAK", "CDR-L2": "GKNNRPS", "CDR-L3": "STPDSSGFQVF", "log10 Kd (nM), mean": "3.58", "detected": "1 of 3"}
{"CDR-L1": "EGGSLRYYYAN", "CDR-L2": "GKNNRMS", "CDR-L3": "RSRDSSGFQVF", "log10 Kd (nM), mean": "4.34", "detected": "2 of 3"}